SMILES strings stand for the structures. The list shows a part of the results, in another mix than the full data. Calls of active or inactive are those of the source. Calls come from the whole dose curve; as a rule, active = well fitted inhibition curve with a large enough effect; inconclusive = small, poorly fitted or top-dose-only effect; inactive = no such curve, though single readings can be large or run the other way. A call without a number means that no potency is given here.
Potency is the fitted concentration of half-maximal effect.

The chains behind the UniProt entries cited, without tags or fusion partners.
UniProt P39748, whole entry: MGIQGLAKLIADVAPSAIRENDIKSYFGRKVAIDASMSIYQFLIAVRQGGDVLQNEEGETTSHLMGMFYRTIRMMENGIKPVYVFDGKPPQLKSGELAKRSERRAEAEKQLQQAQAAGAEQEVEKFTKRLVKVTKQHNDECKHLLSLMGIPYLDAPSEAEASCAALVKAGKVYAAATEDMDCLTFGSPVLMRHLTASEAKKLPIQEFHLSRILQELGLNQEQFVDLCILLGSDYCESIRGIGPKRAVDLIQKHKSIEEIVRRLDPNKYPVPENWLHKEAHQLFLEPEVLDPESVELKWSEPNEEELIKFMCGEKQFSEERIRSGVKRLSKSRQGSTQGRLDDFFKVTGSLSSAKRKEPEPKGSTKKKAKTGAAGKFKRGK

This experiment deals with Flap endonuclease 1 (Homo sapiens) (UniProt P39748). Put plainly: qHTS Assay for the Inhibitors of Human Flap endonuclease 1 (FEN1). Note: nearly all actives have a fitted effect of over 65% in size. The conditions noted are these: Recombinant FEN1 flap cleavage, fluorescence, 15 min; series mostly up to 114 µM. (In general: qHTS replaces the single test concentration by a dilution series.)
Turning to `CCN(CC)CCCOC(=O)C(O)(c1ccccc1)c1ccccc1`, the Potency result is “inactive”.

As for `Cc1cc(C)cc(OP(C)(N)=O)c1` (stereo unspecified), the Potency entry was “inactive”.

Consider `COc1ccccc1OP(C)(=O)Nc1cc(Cl)ccc1C` (stereo unspecified), for which the Potency result was “inactive”.

On to `COc1ccc(OP(C)(=O)Nc2cccc(F)c2)cc1` (stereo unspecified), for which the Potency result is “inactive”.

In the case of `COc1ccccc1OP(C)(=O)Nc1ccc(C)cc1` (stereo unspecified), the Potency result was “inactive”.

As to `Cc1ccc(NP(C)(=O)Oc2ccccc2)c(C)c1` (stereo unspecified), the Potency result was “inactive”.

On to `CCOC(=O)c1ccc(NP(C)(=O)Oc2ccccc2)cc1` (stereo unspecified), for which the Potency result is “inactive”.

With `O=[N+]([O-])c1ccc2c(c1)C=Nc1ccccc1O2`, the Potency result was “inactive”.

For `CC(C)(C)c1ccc(OP(C)(=O)Nc2ccc(SC(F)(F)F)cc2)cc1` (stereo unspecified), the Potency result was “inactive”.

Turning to `O=[N+]([O-])c1cc([N+](=O)[O-])c(Nc2cccnc2)c([N+](=O)[O-])c1`, the Potency result was “inactive”.

`CP(=O)(Nc1ccccc1Br)Oc1ccccc1` (stereo unspecified): the Potency result is “inactive”.

Regarding `COc1ccccc1OP(C)(=O)Nc1ccccc1` (stereo unspecified), the Potency result is “inactive”.

With `CP(=S)(Nn1cnnc1)Oc1ccccc1` (stereo unspecified), the Potency entry is “inactive”.

`CP(=O)(Nc1ccccn1)Oc1ccc(Cl)cc1` (stereo unspecified): the Potency result is “inactive”.

Take `CCOC(=O)c1ccc(NP(C)(=O)Oc2ccc(OC)cc2)cc1` (stereo unspecified): the Potency result was “inactive”.

`O=[N+]([O-])c1cc([N+](=O)[O-])c(O)c([N+](=O)[O-])c1.c1ccc(Oc2ccncc2)cc1`: the Potency entry is “inactive”.

On to `CP(=O)(NC(=O)Nc1ccccc1)Oc1ccccc1` (stereo unspecified), for which the Potency entry was “inactive”.

Take `CCc1ccc(OP(C)(=O)N2CCN(c3ccc([N+](=O)[O-])cc3)CC2)cc1` (stereo unspecified): the Potency entry was “inactive”.

As for `Cc1cccc(C)c1OP(C)(=O)Nc1ccc(SC(F)(F)F)cc1` (stereo unspecified), the Potency result was “inactive”.

For the compound `CP(=O)(Nc1ccc(SC(F)(F)F)cc1)Oc1ccc(Cl)cc1` (stereo unspecified), the Potency result is “inactive”.

For `CP(=O)(Oc1ccccc1)OC(c1ccccc1)C(F)(F)F` (stereo unspecified), the Potency entry is “inactive”.

As for `Cc1nc2ccc3ccccc3c2s1.O=[N+]([O-])c1cc([N+](=O)[O-])c(O)c([N+](=O)[O-])c1`, the Potency entry was “inactive”.

`O=[N+]([O-])c1cc([N+](=O)[O-])c(-c2cnn(-c3ccccc3)c2)c([N+](=O)[O-])c1`: the Potency entry was “inactive”.

As to `O=[N+]([O-])c1cc([N+](=O)[O-])c(-n2nnc3ccccc32)c([N+](=O)[O-])c1`, the Potency result is “inactive”.

In the case of `CCCOc1ccc(NP(C)(=O)Oc2ccc(Cl)cc2)cc1` (stereo unspecified), the Potency result was “inactive”.

Take `CP(=O)(Nc1ccc(SC(F)(F)F)cc1)Oc1ccccc1` (stereo unspecified): the Potency result is “inactive”.

Turning to `COc1ccccc1OP(C)(=O)Nc1c(C)cccc1C` (stereo unspecified), the Potency result is “inactive”.

For `CN1CCCCC1COC(=O)C1(O)c2ccccc2CCc2ccccc21` (stereo unspecified), the Potency entry was “inactive”.

`CC1=C2N=C(C=C3N=C(C(C)=C4[N-][C@@](C)([C@@H]5N=C1[C@](C)(CCC(=O)NC[C@@H](C)OP(=O)([O-])O[C@H]1[C@@H](O)[C@@H](n6cnc7cc(C)c(C)cc76)O[C@@H]1CO)[C@H]5CC(N)=O)[C@@](C)(CC(N)=O)[C@@H]4CCC(N)=O)[C@@](C)(CC(N)=O)[C@@H]3CCC(N)=O)C(C)(C)[C@@H]2CCC(N)=O.[C-]#N.[Co+3]`: the Potency result was “inactive”.

For the compound `O=[N+]([O-])c1cc([N+](=O)[O-])c(Nc2nnnn2CCO)c([N+](=O)[O-])c1`, the Potency result is “inactive”.

Consider `CC1=NCCc2c1[nH]c1ccccc21.O=[N+]([O-])c1cc([N+](=O)[O-])c(O)c([N+](=O)[O-])c1`, for which the Potency result is “inactive”.

Regarding `Cc1ccc(C)c(NP(C)(=O)Oc2ccccc2)c1` (stereo unspecified), the Potency result is “inactive”.

Consider `Cc1cc(C)cc(OP(C)(=O)Nc2ccccn2)c1` (stereo unspecified), for which the Potency entry is “inactive”.

As for `CP(=O)(Nc1cccc(Br)c1)Oc1ccccc1` (stereo unspecified), the Potency result was “inactive”.

On to `CCOC(=O)c1ccc(NP(C)(=O)Oc2cc(C)cc(C)c2)cc1` (stereo unspecified), for which the Potency result is “inactive”.

In the case of `Cc1cc(C)cc(OP(C)(=O)Nc2ccc(C)cc2C)c1` (stereo unspecified), the Potency entry is “inactive”.

Regarding `COc1ccccc1OP(C)(=O)Nc1cccc(Br)c1` (stereo unspecified), the Potency entry is “inactive”.

For the compound `O=C(OCCN1CCN(CCOCc2ccccc2)CC1)C(O)(c1ccccc1)c1ccccc1`, the Potency entry was “inactive”.

For `CC(C)c1ccc(OP(C)(=O)Nc2ccc(SC(F)(F)F)cc2)cc1` (stereo unspecified), the Potency result was “inactive”.

For `CP(=O)(Nc1ccccc1)Oc1ccc(F)cc1` (stereo unspecified), the Potency entry was “inactive”.

For `CCCCCOc1ccc(NP(C)(=O)Oc2ccc(Cl)cc2Cl)cc1` (stereo unspecified), the Potency entry was “inactive”.

With `Cc1c([N+](=O)[O-])cc([N+](=O)[O-])c(Br)c1[N+](=O)[O-]`, the Potency entry is “inactive”.

As for `CCN(CC)CCCOC(=O)C(O)(c1ccccc1)C1CCCCC1` (stereo unspecified), the Potency result was “inactive”.

For `CCOC(=O)c1ccc(NP(C)(=O)Oc2ccc(F)cc2)cc1` (stereo unspecified), the Potency result was “inactive”.

For the compound `COc1ccc(OP(C)(=O)Nc2ccc(SC(F)(F)F)cc2)cc1` (stereo unspecified), the Potency result was “inactive”.

`Cc1c(C(c2ccc3c(c2)OCO3)c2c(C)n(C)n(-c3ccccc3)c2=O)c(=O)n(-c2ccccc2)n1C.O=[N+]([O-])c1cc([N+](=O)[O-])c(O)c([N+](=O)[O-])c1`: the Potency result is “inactive”.

With `O=[N+]([O-])c1ccc(OP2(=O)COCCO2)cc1` (stereo unspecified), the Potency entry is “inactive”.

`Cc1cc(-c2cccc3ccccc23)c(C)cn1.O=[N+]([O-])c1cc([N+](=O)[O-])c(O)c([N+](=O)[O-])c1`: the Potency entry is “inactive”.

For the compound `CN(C)CCOC(=O)C(O)(c1ccccc1)C1CCCCC1` (stereo unspecified), the Potency result was “inactive”.

With `COc1ccc(NP(C)(=O)Oc2ccccc2OC)cc1` (stereo unspecified), the Potency entry is “inactive”.

As to `COc1ccc(OP(C)(=O)Nc2cccc(Br)c2)cc1` (stereo unspecified), the Potency entry was “inactive”.

In the case of `Cc1ccccc1NP(C)(=O)Nc1ccccc1C`, the Potency entry was “inactive”.

For `CP(=O)(Nc1ccc2c(c1)OCCO2)Oc1ccccc1` (stereo unspecified), the Potency entry was “inactive”.

Regarding `CCOP(C)(=S)SCC(=O)NC(C)(CC)C(=O)O` (stereo unspecified), the Potency result is “inactive”.

Take `CP(=O)(Nc1ccc(SC(F)(F)F)cc1)Oc1ccc(F)cc1` (stereo unspecified): the Potency result is “inactive”.

Consider `CN(C)C(=O)c1c([N+](=O)[O-])cc([N+](=O)[O-])cc1[N+](=O)[O-]`, for which the Potency result was “inactive”.

As to `COc1ccccc1OP(C)(=O)Nc1ccccc1Br` (stereo unspecified), the Potency entry is “inactive”.

Take `CC(C)(C)c1ccc(OP(C)(=O)O)cc1`: the Potency entry is “inactive”.

As to `CP(=O)(Nc1ccc(Cl)cc1)Oc1ccc(F)cc1` (stereo unspecified), the Potency entry was “inactive”.

As to `COc1ccccc1OP(C)(=O)Nc1c(C)n(C)n(-c2ccccc2)c1=O` (stereo unspecified), the Potency entry is “inactive”.

Consider `O=C(OCCCN1CCCC1)C(O)(c1ccccc1)C1CCCCC1` (stereo unspecified), for which the Potency result was “inactive”.

`CP(=O)(Oc1ccccc1)N1CCOC1=O` (stereo unspecified): the Potency result is “inactive”.

As for `CCc1ccc(OP(C)(=O)Nc2cccnc2)cc1` (stereo unspecified), the Potency result was “inactive”.

In the case of `CCN(CC)CC(O)COC(=O)C(O)(c1ccccc1)C1CCCCC1` (stereo unspecified), the Potency result was “inactive”.

As for `COc1ccc(OP(C)(=O)Nc2ccc(Br)cc2)cc1` (stereo unspecified), the Potency result is “inactive”.

Consider `CCOC(=O)c1ccc(NP(C)(=O)Oc2ccc(Cl)cc2)cc1` (stereo unspecified), for which the Potency result is “inactive”.

As to `CP(=O)(OC12CC3CC(CC(C3)C1)C2)OC12CC3CC(CC(C3)C1)C2`, the Potency entry is “inactive”.

As to `Nc1ccc2c(ccc3cccnc32)n1.O=[N+]([O-])c1cc([N+](=O)[O-])c(O)c([N+](=O)[O-])c1`, the Potency entry is “inactive”.

Take `CCCCCCCCCCCCCCCC1C[N+](C)(C)CCOP(C)(=O)O1` (stereo unspecified): the Potency is active: 79.4 µM.

Turning to `CP(=O)(Nc1ccc(Cl)cc1Cl)Oc1ccccc1` (stereo unspecified), the Potency entry is “inactive”.

As for `CP(=O)(OCCOc1ccccc1)OCCOc1ccccc1`, the Potency entry was “inactive”.

As for `COc1ccccc1OP(C)(=O)Nc1ccc(C)c(C)c1` (stereo unspecified), the Potency result was “inactive”.

On to `COc1ccc(OP(C)(=O)Nc2ccccc2Br)cc1` (stereo unspecified), for which the Potency entry was “inactive”.

`Cc1cc(C)cc(OP(C)(=O)Nc2cccc(C(F)(F)F)c2)c1` (stereo unspecified): the Potency entry is “inactive”.

With `CP(=O)(Nc1ccccn1)Oc1ccccc1` (stereo unspecified), the Potency entry was “inactive”.

Regarding `COc1ccccc1OP(C)(=O)Nc1ccc(C)cc1C` (stereo unspecified), the Potency result was “inactive”.

In the case of `CCc1ccc(OP(C)(=O)O)cc1`, the Potency result was “inactive”.

Turning to `Cc1c(NP(C)(=O)Oc2ccc(C(C)C)cc2)c(=O)n(-c2ccccc2)n1C` (stereo unspecified), the Potency result was “inactive”.

Turning to `COc1ccc(OP(C)(=O)Nc2ccccn2)cc1` (stereo unspecified), the Potency entry was “inactive”.

`CN(C)CCOC(=O)C(O)(c1ccccc1)C1CCCC1` (stereo unspecified): the Potency entry is “inactive”.

Turning to `COc1ccccc1OP(C)(=O)Nc1ccc(Br)cc1` (stereo unspecified), the Potency entry is “inactive”.

These data come from PubChem BioAssay AID588795 (National Center for Advancing Translational Sciences (NCATS), 2011).
